scFv variants of Ab-14 (light chain) against a SARS-CoV-2 spike peptide

The measurements come from Engelhart et al. 2022 (doi:10.1038/s41597-022-01779-4) through the FLAb antibody collection.

Antigen: PDVDLGDISGINAS, a 14-residue peptide of the SARS-CoV-2 spike HR2 region.

Parent scFv Ab-14: VH joined to VL by a (GGGGS)3 linker. Changes lie in the light chain CDRs alone.
VH: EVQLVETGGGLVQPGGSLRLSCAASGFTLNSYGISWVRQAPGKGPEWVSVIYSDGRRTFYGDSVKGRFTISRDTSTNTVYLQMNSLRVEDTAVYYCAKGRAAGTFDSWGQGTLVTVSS
VL: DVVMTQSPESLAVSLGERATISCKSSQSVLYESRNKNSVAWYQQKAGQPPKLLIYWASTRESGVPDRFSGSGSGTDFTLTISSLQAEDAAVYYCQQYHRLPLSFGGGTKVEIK

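The parent was found by panning a naive human phage display library on the peptide. Variants in AAYL50 differ from the parent at up to three CDR positions; double and triple changes were sampled at random. The scFvs were displayed on barcoded MATa yeast, the peptide on MATalpha yeast. The frequency of each diploid, read from paired DNA barcodes, reflects how well the two displayed proteins bind. Each replicate has its own calibration line, from reference interactions of the BCL2 family. Mating was done three times.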

Variants are written as CDR1, CDR2 and CDR3 of the light chain (limits as in the source). Parent: KSSQSVLYESRNKNSVA, WASTRES, QQYHRLPLS. Values are log10 of the apparent Kd in nM; lower means stronger binding. A mean of the replicates is given; it leaves out those without a signal. "n.d." marks a missing value. The strain was present, yet no cells mated with the target were sequenced in that replicate, which points to weak or no binding. For reference, the parent read 0.65 as the reference entry and 1.68 as a member of this library.

CDR-L1,CDR-L2,CDR-L3,log10 Kd (nM) by replicate,"mean, log10 nM",signal with controls
KSSQSVHYESRNKNSVA,WASTRWS,QQYHRLPLS,2.73 2.58 3.04,2.78,5 of 9 (4.62)
KSSQSVLYESRNKNSVA,WYSTGES,QQLHRLPLS,n.d. n.d. 5.40,5.40,0 of 9
KSSQSVLTESRNKNPVA,WTSTRES,QQYHRLPLS,0.50 0.84 0.68,0.67,0 of 9
KSVQSVLYMSRNKNSVA,WASNRES,QQYHRLPLS,n.d. n.d. n.d.,n.d.,1 of 9 (5.42)
KSSLSVLYESRNKNSVA,WPSTRES,QQYHRLPLS,n.d. 3.88 4.05,3.97,1 of 9 (2.65)
KSSQSVLYEYRHKNSVK,WASTRES,QQYHRLPLS,n.d. n.d. n.d.,n.d.,0 of 9
KEVQSVLYESRNKNSVA,WASTRES,QQYHRLPLS,n.d. 3.34 1.76,2.55,0 of 9
KSSQSVLYESRNKNSVA,WAATRES,QQYHRLKLS,n.d. n.d. n.d.,n.d.,4 of 9 (4.20)
KSSQSVLYESRNKNSVA,WASTAES,LQYHRLPLI,n.d. n.d. n.d.,n.d.,0 of 9
KSSFSELYESRNKISVA,WASTRES,QQYHRLPLS,1.59 1.99 1.54,1.71,1 of 9 (4.61)
KSSQSVLYTSRNKNSVA,WAYTREP,QQYHRLPLS,3.89 4.04 4.93,4.29,6 of 9 (4.40)
KSSQSTWYESRNKNSVA,WASTRES,QQYFRLPLS,0.01 0.42 0.14,0.19,1 of 9 (4.47)
KSSQSVLYESANKNSVS,WASTRES,GQYHRLPLS,n.d. 2.76 n.d.,2.76,1 of 9 (4.99)
KSSQSVLYESRGKNSVA,CASTRES,QQNHRLPLS,4.92 3.88 n.d.,4.40,3 of 9 (4.61)
KSSQSVLYESRNKNSVA,NASTRKS,EQYHRLPLS,n.d. 1.80 n.d.,1.80,0 of 9
KSSQSVLYESMNKNSVA,WASTRES,NQYHRLPKS,3.25 2.47 2.80,2.84,1 of 9 (3.96)
KSGQSVLYESRNKNSVA,WASNRGS,QQYHRLPLS,3.16 3.70 n.d.,3.43,2 of 9 (3.91)
KWSQSVLYESRNKNSVA,WASTRES,GQYHRLPKS,n.d. n.d. n.d.,n.d.,0 of 9
KSSPSVLGESRNKNHVA,WASTRES,QQYHRLPLS,0.37 0.60 1.07,0.68,0 of 9
KSSQSVLYESRNKNSVA,WAWTRES,QQYHRNPHS,4.49 3.55 5.91,4.65,4 of 9 (4.38)
KSKQSVLYQSRNKNSVA,WASTRES,QQYHRLPLS,2.52 2.00 2.71,2.41,1 of 9 (4.19)
KIQQSVLMESRNKNSVA,WASTRES,QQYHRLPLS,0.28 0.53 0.40,0.40,4 of 9 (4.10)
KSRQSVLYESRNKNSVA,WASTRES,QQYHYLPYS,n.d. n.d. n.d.,n.d.,0 of 9
KSSQSVLYESRNKNSVA,WASTRES,MTCHRLPLS,n.d. n.d. n.d.,n.d.,2 of 9 (3.86)
KCSQSVLYESRNKNSVA,WYSTRES,QQYHRLPLS,n.d. n.d. n.d.,n.d.,2 of 9 (3.66)
KSSQSVLYESRNSSSVA,WPSTRES,QQYHRLPLS,n.d. n.d. n.d.,n.d.,0 of 9
KSSQSVLYESRNKDSVA,WASTREG,QQFHRLPLS,1.50 n.d. n.d.,1.50,0 of 9
KSSQSVLYESRNKMSVA,WASTPES,QIYHRLPLS,4.04 3.99 5.49,4.51,4 of 9 (4.28)
KSSQSVLYESYNKNSVA,WRSTRES,QCYHRLPLS,n.d. 3.92 n.d.,3.92,2 of 9 (4.59)
KSSQSVLYESRNKNSVA,WASFRES,QQYHKNPLS,2.31 2.47 2.72,2.50,7 of 9 (4.27)
KSMQSVLYESRNPNSVA,WARTRES,QQYHRLPLS,n.d. 3.23 n.d.,3.23,2 of 9 (4.23)
KSSQSVRYESRNKNSVA,WASTREL,QQYHRLPGS,n.d. n.d. 4.61,4.61,0 of 9
KSSQSVLYEDRNRWSVA,WASTRES,QQYHRLPLS,0.89 0.88 0.77,0.85,2 of 9 (4.42)
KSSQSVLYESRNKNSVA,WATTRES,QQYHRLPKS,0.72 1.04 0.88,0.88,1 of 9 (2.90)
KSSQSVLYESRNKNSVY,WASTREV,MQYHRLPLS,n.d. 3.72 n.d.,3.72,2 of 9 (4.49)
KSSQSVLYESRRKNSVA,WAPTRES,QQYHRLPLP,5.19 5.53 4.61,5.11,3 of 9 (4.37)
KSSQSVLYASRNKNSVA,WASTRES,YQYHRLPLL,n.d. 3.20 n.d.,3.20,2 of 9 (4.21)
KSSQSVLYESRNSNSVA,WASTRES,QQYHRLPIS,0.41 0.78 0.52,0.57,4 of 9 (5.02)
KSSQSVLYESRNKHSVA,WASTRES,QQRRRLPLS,n.d. n.d. n.d.,n.d.,2 of 9 (3.56)
KSSMSVLYESPNKNSVA,WASTRES,QQYHRLPLE,2.01 2.25 2.75,2.34,6 of 9 (4.57)
KSSQSVLYESRNKNSKM,WASTRES,QQIHRLPLS,n.d. 4.29 3.66,3.98,1 of 9 (4.53)
KSSQSVLYESRNKNSVA,EASTRES,QQYHRHPLS,-0.06 0.21 0.01,0.05,8 of 9 (4.68)
LSSQSVLYESRNKNSVA,WAFTRES,QQYHRVPLS,n.d. n.d. n.d.,n.d.,3 of 9 (4.21)
KSSQSVLYTSRNKNSVA,WASPRES,QQYHRLPLS,n.d. n.d. n.d.,n.d.,0 of 9
KSSQSYLYESRNKNSVA,WASTRES,QQFRRLPLS,n.d. n.d. n.d.,n.d.,3 of 9 (4.34)
KSSQSVLYESRNKNSVA,WASRRES,QQYCRLPLS,1.82 1.71 1.91,1.81,2 of 9 (5.46)
KSSKMVLYESRNKNSVA,WASTRES,QQYHRLPMS,1.81 2.26 2.21,2.09,7 of 9 (4.46)
KSSQSVVYESRNKNSVA,IASTRES,QQYHRLPTS,4.97 3.04 3.35,3.79,3 of 9 (4.43)
KSSQSVLYESRNKNKVE,WASTRES,QQYLRLPLS,n.d. n.d. n.d.,n.d.,2 of 9 (3.62)
KSSQSVLYESRNKNSVA,WASTRES,PQYLRLPLS,n.d. n.d. n.d.,n.d.,1 of 9 (5.03)

Picked from the list: the 4 lowest averages where every replicate gave a value.

CDR-L1	CDR-L2	CDR-L3	log10 Kd (nM) by replicate	mean, log10 nM	signal with controls
KSSQSVLYESRNKNSVA	EASTRES	QQYHRHPLS	-0.06 0.21 0.01	0.05	8 of 9 (4.68)
KSSQSTWYESRNKNSVA	WASTRES	QQYFRLPLS	0.01 0.42 0.14	0.19	1 of 9 (4.47)
KIQQSVLMESRNKNSVA	WASTRES	QQYHRLPLS	0.28 0.53 0.40	0.40	4 of 9 (4.10)
KSSQSVLYESRNSNSVA	WASTRES	QQYHRLPIS	0.41 0.78 0.52	0.57	4 of 9 (5.02)

Nonspecific signal, from three strains lacking the peptide, appeared in 18% of pairings of library AAYL50, centred on 4.19 (5% of these signals below 2.99); values are not corrected for it. Also given: how often the same scFv was detected with the empty control strains, with their mean in brackets.